Data: ChEMBL document CHEMBL1143442, “Inhibitors of the tyrosine kinase EphB4. Part 2: structure-based discovery and optimisation of 3,5-bis substituted anilinopyrimidines” (Bioorg Med Chem Lett, 2008)

Key:
Ephrin type-B receptor 4 [1] = target: T1, Ephrin type-B receptor 4 (Homo sapiens, UniProt P54760); assay: Inhibition of EphB4
T1 sequence (P54760 whole entry): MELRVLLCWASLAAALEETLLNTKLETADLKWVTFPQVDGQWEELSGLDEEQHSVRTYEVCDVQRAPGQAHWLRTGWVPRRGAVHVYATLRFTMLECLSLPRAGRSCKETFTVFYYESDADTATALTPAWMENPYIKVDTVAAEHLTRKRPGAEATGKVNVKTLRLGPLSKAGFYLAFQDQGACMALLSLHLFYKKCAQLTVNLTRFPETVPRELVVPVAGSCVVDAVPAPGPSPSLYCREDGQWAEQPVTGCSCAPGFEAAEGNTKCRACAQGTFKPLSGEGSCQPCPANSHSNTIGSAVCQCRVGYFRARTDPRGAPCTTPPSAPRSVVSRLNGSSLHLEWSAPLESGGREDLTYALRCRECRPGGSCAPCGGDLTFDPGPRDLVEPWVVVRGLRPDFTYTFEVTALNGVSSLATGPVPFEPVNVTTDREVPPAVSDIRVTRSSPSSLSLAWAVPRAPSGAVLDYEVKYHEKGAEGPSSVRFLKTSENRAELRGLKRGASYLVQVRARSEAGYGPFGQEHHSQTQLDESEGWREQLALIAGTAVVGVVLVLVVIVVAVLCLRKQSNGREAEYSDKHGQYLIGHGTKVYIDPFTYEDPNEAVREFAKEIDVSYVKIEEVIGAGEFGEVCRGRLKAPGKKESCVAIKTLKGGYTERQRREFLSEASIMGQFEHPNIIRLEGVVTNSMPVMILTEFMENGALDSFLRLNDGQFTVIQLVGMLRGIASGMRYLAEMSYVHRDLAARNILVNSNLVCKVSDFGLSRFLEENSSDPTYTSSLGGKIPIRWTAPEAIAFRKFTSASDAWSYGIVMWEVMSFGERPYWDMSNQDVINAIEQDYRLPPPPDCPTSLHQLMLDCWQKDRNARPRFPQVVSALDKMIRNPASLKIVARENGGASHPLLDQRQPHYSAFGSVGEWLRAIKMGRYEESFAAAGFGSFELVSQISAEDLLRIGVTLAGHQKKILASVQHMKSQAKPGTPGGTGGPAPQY

Ephrin type-B receptor 4 [2] = target: T1, Ephrin type-B receptor 4; assay: Inhibition of Myc-His-tagged EphB4 expressed in CHOK1 cells assessed as phosphorylation by ELISA; type: cell-based, CHO-K1

Row | Structure (SMILES) | IC50 (Ephrin type-B receptor 4 [1]) [nM] | IC50 (Ephrin type-B receptor 4 [2]) [nM]
1 | CS(=O)(=O)Nc1cccc(Nc2nccc(Nc3c(Cl)ccc4c3OCO4)n2)c1 | 794 | 741
2 | NC(=O)c1cccc(Nc2nccc(Nc3c(Cl)ccc4c3OCO4)n2)c1 | 220 | 
